This is an account of results in ChEMBL document CHEMBL1145308 (Bioorg Med Chem Lett, 2006).

Protein sequences, listed by entry. Tags and fused reporters are not part of them.
UniProt P41146, whole entry: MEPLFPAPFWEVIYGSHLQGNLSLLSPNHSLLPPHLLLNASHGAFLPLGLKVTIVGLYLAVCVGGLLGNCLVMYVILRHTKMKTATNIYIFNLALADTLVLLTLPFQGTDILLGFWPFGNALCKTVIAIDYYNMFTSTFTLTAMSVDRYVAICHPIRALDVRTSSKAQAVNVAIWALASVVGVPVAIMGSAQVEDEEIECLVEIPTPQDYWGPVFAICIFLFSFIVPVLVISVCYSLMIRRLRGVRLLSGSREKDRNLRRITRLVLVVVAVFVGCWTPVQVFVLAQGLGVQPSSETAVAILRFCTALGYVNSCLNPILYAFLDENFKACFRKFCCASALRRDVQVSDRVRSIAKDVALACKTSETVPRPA
UniProt P35372, whole entry: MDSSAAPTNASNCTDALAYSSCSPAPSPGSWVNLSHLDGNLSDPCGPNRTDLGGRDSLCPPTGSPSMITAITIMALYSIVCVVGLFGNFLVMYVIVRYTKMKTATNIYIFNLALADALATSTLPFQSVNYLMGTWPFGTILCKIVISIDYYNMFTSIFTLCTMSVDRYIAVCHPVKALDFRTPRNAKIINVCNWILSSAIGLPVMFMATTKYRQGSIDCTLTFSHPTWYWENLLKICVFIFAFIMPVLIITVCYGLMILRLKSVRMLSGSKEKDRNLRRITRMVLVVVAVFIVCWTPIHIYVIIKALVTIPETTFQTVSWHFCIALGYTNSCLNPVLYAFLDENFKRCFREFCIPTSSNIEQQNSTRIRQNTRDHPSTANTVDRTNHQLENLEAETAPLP

Each structure is given as a SMILES string.

One experiment deals with Nociceptin receptor (Homo sapiens, UniProt P41146). The experiment in a line: Displacement of [3H]NOP from human NOP receptor expressed in HEK293 cells. On the technique in general: In a radioligand displacement assay an active substance lowers the binding of a labelled ligand.
The next experiment concerns the target Mu-type opioid receptor (Homo sapiens, UniProt P35372). Put plainly: Displacement of [3H]naloxone from mu opioid receptor expressed in BHK cells.

As a reminder, the IC50 is the concentration needed to halve the response being measured.

On to `O=C1NCN(c2ccccc2)C12CCN(C1(c3ccccc3)CCCCC1)CC2`, for which the IC50 on Nociceptin receptor and on Mu-type opioid receptor was 15 nM throughout.
